Data reported in paper PMC10008561 (Nature Communications, 2023).
Several values for one entry are separate records, joined by “and”; a condition that tells them apart may be missing. Equal values may be shown once. Read-outs that look alike come from different tables or passages of the source.

Sequences of proteins named here, by UniProt entry; tags and fusion partners are left off.
UniProt P41145, whole entry Y320L: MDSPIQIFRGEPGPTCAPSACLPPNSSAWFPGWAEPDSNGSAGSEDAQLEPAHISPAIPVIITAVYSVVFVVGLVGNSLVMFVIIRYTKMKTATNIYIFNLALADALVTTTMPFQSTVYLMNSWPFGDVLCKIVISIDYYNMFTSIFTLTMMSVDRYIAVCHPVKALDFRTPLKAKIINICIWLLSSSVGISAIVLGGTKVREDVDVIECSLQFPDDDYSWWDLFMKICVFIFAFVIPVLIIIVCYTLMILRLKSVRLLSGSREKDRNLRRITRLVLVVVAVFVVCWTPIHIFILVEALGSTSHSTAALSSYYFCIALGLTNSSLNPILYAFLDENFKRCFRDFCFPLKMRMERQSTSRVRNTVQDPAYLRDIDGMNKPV
UniProt P41145, whole entry Y139L: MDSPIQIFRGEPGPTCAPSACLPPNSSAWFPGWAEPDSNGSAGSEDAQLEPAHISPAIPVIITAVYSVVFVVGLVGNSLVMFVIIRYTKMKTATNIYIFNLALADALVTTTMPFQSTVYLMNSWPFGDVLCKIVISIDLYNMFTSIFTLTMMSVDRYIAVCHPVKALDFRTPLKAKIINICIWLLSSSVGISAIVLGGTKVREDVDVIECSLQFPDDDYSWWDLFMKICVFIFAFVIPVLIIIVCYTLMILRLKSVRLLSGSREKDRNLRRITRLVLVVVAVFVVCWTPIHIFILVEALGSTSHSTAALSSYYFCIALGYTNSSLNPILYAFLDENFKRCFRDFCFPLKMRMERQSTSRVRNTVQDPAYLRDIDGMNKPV
UniProt P41145, whole entry D105A: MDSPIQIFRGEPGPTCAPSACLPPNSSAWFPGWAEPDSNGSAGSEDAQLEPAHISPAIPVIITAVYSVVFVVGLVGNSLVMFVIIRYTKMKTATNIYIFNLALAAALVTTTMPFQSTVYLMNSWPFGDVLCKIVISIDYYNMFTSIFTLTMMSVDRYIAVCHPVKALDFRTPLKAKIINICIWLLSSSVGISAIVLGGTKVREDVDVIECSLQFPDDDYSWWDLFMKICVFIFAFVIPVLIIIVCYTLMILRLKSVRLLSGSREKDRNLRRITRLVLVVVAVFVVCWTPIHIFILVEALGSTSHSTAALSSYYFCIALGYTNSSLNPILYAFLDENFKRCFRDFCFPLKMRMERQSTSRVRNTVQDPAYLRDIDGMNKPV
UniProt P41145, whole entry R257A: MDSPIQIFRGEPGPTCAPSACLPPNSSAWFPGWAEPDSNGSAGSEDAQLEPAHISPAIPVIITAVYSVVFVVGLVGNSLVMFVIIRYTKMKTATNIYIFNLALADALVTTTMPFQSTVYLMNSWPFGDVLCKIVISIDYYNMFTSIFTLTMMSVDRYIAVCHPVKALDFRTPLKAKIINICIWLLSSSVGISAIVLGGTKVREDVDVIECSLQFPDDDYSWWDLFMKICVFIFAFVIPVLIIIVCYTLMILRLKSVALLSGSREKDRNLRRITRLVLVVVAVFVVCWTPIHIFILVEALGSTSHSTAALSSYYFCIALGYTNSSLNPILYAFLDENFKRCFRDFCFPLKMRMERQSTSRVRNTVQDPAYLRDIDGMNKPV
UniProt P41145, whole entry Q115N: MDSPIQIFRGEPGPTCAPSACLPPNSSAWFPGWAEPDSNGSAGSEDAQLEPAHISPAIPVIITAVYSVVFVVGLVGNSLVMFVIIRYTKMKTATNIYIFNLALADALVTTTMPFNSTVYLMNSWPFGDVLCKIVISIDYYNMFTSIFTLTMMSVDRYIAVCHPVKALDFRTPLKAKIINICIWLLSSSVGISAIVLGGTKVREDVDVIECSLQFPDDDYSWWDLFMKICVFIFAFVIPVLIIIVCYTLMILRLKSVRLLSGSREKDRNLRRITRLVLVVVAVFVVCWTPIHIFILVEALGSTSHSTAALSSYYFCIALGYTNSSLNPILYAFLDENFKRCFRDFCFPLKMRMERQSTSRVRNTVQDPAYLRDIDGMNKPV
UniProt P41145, whole entry T94V: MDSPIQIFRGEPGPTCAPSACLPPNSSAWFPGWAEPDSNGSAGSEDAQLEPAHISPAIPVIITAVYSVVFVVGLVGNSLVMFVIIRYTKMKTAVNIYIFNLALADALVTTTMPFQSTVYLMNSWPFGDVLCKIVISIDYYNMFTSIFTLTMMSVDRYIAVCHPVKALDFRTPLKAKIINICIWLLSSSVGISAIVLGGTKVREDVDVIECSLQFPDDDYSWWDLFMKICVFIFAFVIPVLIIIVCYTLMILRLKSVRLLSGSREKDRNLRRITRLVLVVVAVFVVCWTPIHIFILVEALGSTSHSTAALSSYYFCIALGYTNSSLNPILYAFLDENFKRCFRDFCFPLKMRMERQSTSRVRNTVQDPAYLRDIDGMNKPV
UniProt P41145, whole entry K227A: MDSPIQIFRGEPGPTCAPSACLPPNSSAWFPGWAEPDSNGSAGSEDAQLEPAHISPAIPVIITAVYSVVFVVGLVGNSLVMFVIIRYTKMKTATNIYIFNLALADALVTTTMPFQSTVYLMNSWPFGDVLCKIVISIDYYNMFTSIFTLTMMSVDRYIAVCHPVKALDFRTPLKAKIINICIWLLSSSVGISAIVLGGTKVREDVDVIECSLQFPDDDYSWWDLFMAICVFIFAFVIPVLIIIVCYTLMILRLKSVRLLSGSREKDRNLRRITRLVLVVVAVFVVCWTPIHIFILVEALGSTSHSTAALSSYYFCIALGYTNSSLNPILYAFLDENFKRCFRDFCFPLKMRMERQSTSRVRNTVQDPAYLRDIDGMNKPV
UniProt P41145, whole entry G319L: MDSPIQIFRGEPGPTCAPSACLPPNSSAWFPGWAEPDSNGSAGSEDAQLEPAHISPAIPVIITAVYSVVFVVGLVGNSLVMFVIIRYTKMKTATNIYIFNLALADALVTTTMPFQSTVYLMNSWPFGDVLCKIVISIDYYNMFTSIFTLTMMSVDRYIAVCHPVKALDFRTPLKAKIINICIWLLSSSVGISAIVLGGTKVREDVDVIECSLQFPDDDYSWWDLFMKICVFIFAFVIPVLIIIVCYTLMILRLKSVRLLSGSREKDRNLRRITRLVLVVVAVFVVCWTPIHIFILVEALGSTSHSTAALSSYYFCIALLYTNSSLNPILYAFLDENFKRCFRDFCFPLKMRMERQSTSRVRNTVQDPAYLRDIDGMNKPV
UniProt P41145, whole entry V134A: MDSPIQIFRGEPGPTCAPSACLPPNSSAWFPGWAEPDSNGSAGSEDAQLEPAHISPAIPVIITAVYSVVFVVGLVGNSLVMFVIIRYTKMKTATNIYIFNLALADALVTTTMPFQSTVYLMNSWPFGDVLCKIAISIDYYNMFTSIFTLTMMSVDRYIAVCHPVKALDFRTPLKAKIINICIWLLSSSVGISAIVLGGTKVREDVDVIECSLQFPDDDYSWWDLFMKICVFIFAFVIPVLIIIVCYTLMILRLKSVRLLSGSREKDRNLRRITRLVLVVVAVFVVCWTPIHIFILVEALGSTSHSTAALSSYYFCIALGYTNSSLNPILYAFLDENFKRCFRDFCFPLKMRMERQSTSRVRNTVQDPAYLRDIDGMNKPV
UniProt P41145, whole entry D138A: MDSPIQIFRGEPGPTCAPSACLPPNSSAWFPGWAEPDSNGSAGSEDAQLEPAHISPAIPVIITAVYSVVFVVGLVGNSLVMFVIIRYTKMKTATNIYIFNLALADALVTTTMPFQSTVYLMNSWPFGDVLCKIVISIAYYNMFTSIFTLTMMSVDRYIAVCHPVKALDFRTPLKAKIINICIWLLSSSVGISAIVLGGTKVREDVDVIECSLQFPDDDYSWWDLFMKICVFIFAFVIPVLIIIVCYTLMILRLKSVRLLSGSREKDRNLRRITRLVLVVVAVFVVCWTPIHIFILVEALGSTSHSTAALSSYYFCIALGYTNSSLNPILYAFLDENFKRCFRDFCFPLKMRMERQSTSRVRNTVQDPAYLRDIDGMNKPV
UniProt P41145, whole entry W124L: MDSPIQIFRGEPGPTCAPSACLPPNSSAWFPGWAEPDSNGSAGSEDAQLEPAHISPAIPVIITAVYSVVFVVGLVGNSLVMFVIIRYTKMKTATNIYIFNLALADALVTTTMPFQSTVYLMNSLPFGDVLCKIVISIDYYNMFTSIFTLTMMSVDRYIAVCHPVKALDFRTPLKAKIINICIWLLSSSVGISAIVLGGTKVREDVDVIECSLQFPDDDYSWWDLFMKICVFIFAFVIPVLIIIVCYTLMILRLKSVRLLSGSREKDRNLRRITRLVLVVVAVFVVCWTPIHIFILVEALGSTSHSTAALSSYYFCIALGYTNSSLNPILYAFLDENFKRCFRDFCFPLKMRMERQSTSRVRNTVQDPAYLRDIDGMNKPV
UniProt P41145, whole entry F114L: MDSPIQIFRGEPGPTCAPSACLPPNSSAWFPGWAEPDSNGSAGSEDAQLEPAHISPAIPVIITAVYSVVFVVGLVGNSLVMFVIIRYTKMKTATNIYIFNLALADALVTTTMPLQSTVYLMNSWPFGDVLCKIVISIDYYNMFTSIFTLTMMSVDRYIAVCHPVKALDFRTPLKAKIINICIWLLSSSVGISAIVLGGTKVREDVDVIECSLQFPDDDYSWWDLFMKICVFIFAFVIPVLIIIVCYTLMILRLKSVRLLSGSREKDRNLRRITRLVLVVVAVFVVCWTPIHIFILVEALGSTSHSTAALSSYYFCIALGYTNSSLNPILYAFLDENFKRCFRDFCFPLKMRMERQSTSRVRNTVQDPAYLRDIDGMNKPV
UniProt P41145, whole entry R170A: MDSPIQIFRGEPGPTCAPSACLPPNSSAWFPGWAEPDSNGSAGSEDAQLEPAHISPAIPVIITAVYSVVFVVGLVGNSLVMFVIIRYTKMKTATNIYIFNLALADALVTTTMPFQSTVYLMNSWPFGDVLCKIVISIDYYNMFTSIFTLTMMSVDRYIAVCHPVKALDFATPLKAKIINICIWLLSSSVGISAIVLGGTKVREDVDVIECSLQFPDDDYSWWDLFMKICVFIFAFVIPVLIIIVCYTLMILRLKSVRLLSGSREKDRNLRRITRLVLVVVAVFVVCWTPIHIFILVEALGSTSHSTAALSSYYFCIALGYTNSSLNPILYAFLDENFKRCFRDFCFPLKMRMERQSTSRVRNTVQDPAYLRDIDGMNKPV
UniProt P41145, whole entry R274A: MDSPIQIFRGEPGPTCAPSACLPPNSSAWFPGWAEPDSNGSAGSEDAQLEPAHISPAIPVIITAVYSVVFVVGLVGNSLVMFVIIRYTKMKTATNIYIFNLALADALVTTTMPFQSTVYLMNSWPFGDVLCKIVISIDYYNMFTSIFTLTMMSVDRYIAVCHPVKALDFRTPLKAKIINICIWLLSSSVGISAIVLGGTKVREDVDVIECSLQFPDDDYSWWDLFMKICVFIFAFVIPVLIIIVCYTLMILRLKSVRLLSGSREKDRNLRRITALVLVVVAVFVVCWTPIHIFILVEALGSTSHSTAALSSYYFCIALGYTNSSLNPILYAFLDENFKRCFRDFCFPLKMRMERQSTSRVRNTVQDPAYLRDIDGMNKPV
UniProt P41145, whole entry E297A: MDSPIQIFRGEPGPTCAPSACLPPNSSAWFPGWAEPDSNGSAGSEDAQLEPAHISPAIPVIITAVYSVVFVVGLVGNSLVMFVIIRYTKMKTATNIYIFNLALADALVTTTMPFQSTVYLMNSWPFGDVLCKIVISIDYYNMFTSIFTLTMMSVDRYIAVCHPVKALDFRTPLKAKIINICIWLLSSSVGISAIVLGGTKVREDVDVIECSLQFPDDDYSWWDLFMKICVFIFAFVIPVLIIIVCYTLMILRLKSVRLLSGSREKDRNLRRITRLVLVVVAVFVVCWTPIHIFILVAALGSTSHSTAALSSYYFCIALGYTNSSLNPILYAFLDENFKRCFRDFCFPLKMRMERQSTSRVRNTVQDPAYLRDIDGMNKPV
UniProt P41145, whole entry N322A: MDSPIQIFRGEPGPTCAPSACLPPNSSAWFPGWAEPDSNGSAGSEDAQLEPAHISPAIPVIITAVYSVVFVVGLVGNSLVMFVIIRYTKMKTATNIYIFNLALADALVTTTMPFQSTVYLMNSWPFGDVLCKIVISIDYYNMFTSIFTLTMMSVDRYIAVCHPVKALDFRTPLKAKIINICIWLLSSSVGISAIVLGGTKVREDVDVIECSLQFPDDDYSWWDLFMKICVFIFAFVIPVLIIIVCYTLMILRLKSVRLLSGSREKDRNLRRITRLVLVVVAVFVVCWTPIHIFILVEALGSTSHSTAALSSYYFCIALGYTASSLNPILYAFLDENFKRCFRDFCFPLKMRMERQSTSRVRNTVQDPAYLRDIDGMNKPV
UniProt P41145, whole entry D266A: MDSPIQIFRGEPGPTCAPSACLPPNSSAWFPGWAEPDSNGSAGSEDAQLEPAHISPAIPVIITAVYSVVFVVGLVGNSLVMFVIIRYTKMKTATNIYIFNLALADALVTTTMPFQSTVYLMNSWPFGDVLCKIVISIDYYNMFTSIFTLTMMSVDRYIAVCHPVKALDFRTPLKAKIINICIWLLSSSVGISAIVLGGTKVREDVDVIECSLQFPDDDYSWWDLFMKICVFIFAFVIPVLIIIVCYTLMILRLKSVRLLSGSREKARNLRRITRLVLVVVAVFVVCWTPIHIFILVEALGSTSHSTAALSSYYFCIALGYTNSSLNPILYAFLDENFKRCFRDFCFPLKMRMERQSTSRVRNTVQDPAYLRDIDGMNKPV

Assays:
human KOR (GoA) [1] = target: T1, human KOR (GoA) (Homo sapiens, UniProt P41145, Y320L); test: cell-based
T1 construct: expressed in transfected cells; host or cells: HEK293T

human KOR (GoA) [2] = target: T2, human KOR (GoA) (Homo sapiens, UniProt P41145, Y139L); test: cell-based; conditions: HEK-293T
T2 construct: expressed in transfected cells; host or cells: HEK293T

human KOR (GoA) [3] = target: T3, human KOR (GoA) (Homo sapiens, UniProt P41145, D105A); test: cell-based; conditions: HEK-293T
T3 construct: expressed in transfected cells; host or cells: HEK293T

human KOR (GoA) [4] = target: T4, human KOR (GoA) (Homo sapiens, UniProt P41145, R257A); test: cell-based; conditions: HEK-293T
T4 construct: expressed in transfected cells; host or cells: HEK293T

KOR [5] = target: T5, KOR (Homo sapiens, UniProt P41145); test: cell-based; design: expressed in transfected cells; host or cells: HEK 293T (ATCC, CRL-3216)
KOR [6] = target: T5, KOR; test: cell-based; design: expressed in transfected cells; host or cells: HEK 293T (ATCC, CRL-3216); conditions: for activation at 0.01 µM / activation at […]: HEK-293T
KOR [7] = target: T5, KOR
KOR Q115N = KOR Q115N (Homo sapiens, UniProt P41145, Q115N); test: cell-based; design: TEV cleavage site (C); tTA transcription factor (C); expressed in transfected cells; host or cells: HTLA cells; conditions: read-out: Tango response (Figure S4C), KOR Q115N; Log [Drug], M -6; replicate values
human KOR (Gz) [8] = target: T6, human KOR (Gz) (Homo sapiens, UniProt P41145, T94V); test: cell-based; conditions: HEK-293T
T6 construct: expressed in transfected cells; host or cells: HEK293T

human KOR (Gz) [9] = target: T7, human KOR (Gz) (Homo sapiens, UniProt P41145, R257A); test: cell-based; conditions: HEK-293T
T7 construct: expressed in transfected cells; host or cells: HEK293T

human KOR (Gz) [10] = target: T8, human KOR (Gz) (Homo sapiens, UniProt P41145); test: cell-based
T8 construct: expressed in transfected cells; host or cells: HEK293T

human KOR (Gz) [11] = target: T9, human KOR (Gz) (Homo sapiens, UniProt P41145, K227A); test: cell-based; conditions: HEK-293T
T9 construct: expressed in transfected cells; host or cells: HEK293T

human KOR (Gz) [12] = target: T10, human KOR (Gz) (Homo sapiens, UniProt P41145, G319L); test: cell-based; conditions: HEK-293T
T10 construct: expressed in transfected cells; host or cells: HEK293T

human KOR [13] = target: T11, human KOR (Homo sapiens, UniProt P41145, G319L); test: cell-based; conditions: HEK-293T, read-out: cAMP response
T11 construct: expressed in transfected cells; host or cells: HEK 293T (ATCC, CRL-3216)

human KOR [14] = target: T12, human KOR (Homo sapiens, UniProt P41145, V134A); test: cell-based; conditions: HEK-293T, read-out: cAMP response
T12 construct: expressed in transfected cells; host or cells: HEK 293T (ATCC, CRL-3216)

human KOR [15] = target: T13, human KOR (Homo sapiens, UniProt P41145, D138A); test: cell-based; conditions: HEK-293T
T13 construct: expressed in transfected cells; host or cells: HEK 293T (ATCC, CRL-3216)

human KOR [16] = target: T14, human KOR (Homo sapiens, UniProt P41145, W124L); test: cell-based; conditions: HEK-293T, read-out: cAMP response
T14 construct: expressed in transfected cells; host or cells: HEK 293T (ATCC, CRL-3216)

human KOR (Gi3) [17] = target: T15, human KOR (Gi3) (Homo sapiens, UniProt P41145, F114L); test: cell-based; conditions: HEK-293T
T15 construct: expressed in transfected cells; host or cells: HEK293T

human KOR (Gi3) [18] = target: T16, human KOR (Gi3) (Homo sapiens, UniProt P41145, R170A); test: cell-based; conditions: HEK-293T
T16 construct: expressed in transfected cells; host or cells: HEK293T

human KOR (Gi2) [19] = target: T17, human KOR (Gi2) (Homo sapiens, UniProt P41145, R274A); test: cell-based
T17 construct: expressed in transfected cells; host or cells: HEK293T

human KOR (Gi2) [20] = target: T18, human KOR (Gi2) (Homo sapiens, UniProt P41145, D105A); test: cell-based
T18 construct: expressed in transfected cells; host or cells: HEK293T

human KOR (Gi2) [21] = target: T19, human KOR (Gi2) (Homo sapiens, UniProt P41145, Y139L); test: cell-based; conditions: HEK-293T
T19 construct: expressed in transfected cells; host or cells: HEK293T

human KOR (Gi1) [22] = target: T20, human KOR (Gi1) (Homo sapiens, UniProt P41145, E297A); test: cell-based; conditions: HEK-293T
T20 construct: expressed in transfected cells; host or cells: HEK293T

human KOR (Gi1) [23] = target: T21, human KOR (Gi1) (Homo sapiens, UniProt P41145, N322A); test: cell-based; conditions: HEK-293T
T21 construct: expressed in transfected cells; host or cells: HEK293T

human KOR (Gi1) [24] = target: T22, human KOR (Gi1) (Homo sapiens, UniProt P41145, K227A); test: cell-based; conditions: HEK-293T
T22 construct: expressed in transfected cells; host or cells: HEK293T

human KOR (β-arrestin 1) [25] = target: T23, human KOR (β-arrestin 1) (Homo sapiens, UniProt P41145, D266A); test: cell-based; conditions: HEK-293T
T23 construct: expressed in transfected cells; host or cells: HEK293T

human KOR (β-arrestin 2) [26] = target: T24, human KOR (β-arrestin 2) (Homo sapiens, UniProt P41145, D105A); test: cell-based; conditions: HEK-293T
T24 construct: expressed in transfected cells; host or cells: HEK293T

human KOR [27] = target: T13, human KOR; test: cell-based; conditions: HTLA
human KOR (GoB) [28] = target: T25, human KOR (GoB) (Homo sapiens, UniProt P41145, D266A); test: cell-based; conditions: HEK-293T
T25 construct: expressed in transfected cells; host or cells: HEK293T

human KOR (GoB) [29] = target: T26, human KOR (GoB) (Homo sapiens, UniProt P41145, R271A); test: cell-based; conditions: HEK-293T
T26 construct: expressed in transfected cells; host or cells: HEK293T

human KOR (GoB) [30] = target: T27, human KOR (GoB) (Homo sapiens, UniProt P41145, Y139L); test: cell-based; conditions: HEK-293T
T27 construct: expressed in transfected cells; host or cells: HEK293T

human KOR (GoA) [31] = target: T28, human KOR (GoA) (Homo sapiens, UniProt P41145); test: cell-based
T28 construct: expressed in transfected cells; host or cells: HEK293T

human KOR [32] = target: T29, human KOR (Homo sapiens, UniProt P41145, W287A); test: cell-based; conditions: pEC50
T29 construct: expressed in transfected cells; host or cells: HEK 293T (ATCC, CRL-3216)

human KOR [33] = target: T30, human KOR (Homo sapiens, UniProt P41145, Q115N); test: cell-based; conditions: pEC50
T30 construct: expressed in transfected cells; host or cells: HEK 293T (ATCC, CRL-3216)

KOR [34] = target: T5, KOR; test: cell-based; conditions: potency in G protein activation
human KOR (Gi3) [35] = target: T31, human KOR (Gi3) (Homo sapiens, UniProt P41145); test: cell-based
T31 construct: expressed in transfected cells; host or cells: HEK293T

human KOR (Gi2) [36] = target: T32, human KOR (Gi2) (Homo sapiens, UniProt P41145); test: cell-based
T32 construct: expressed in transfected cells; host or cells: HEK293T

human KOR (Gi1) [37] = target: T33, human KOR (Gi1) (Homo sapiens, UniProt P41145); test: cell-based; conditions: pEC50
T33 construct: expressed in transfected cells; host or cells: HEK293T

human KOR (β-arrestin 1) [38] = target: T34, human KOR (β-arrestin 1) (Homo sapiens, UniProt P41145); test: cell-based
T34 construct: expressed in transfected cells; host or cells: HEK293T

human KOR (β-arrestin 2) [39] = target: T35, human KOR (β-arrestin 2) (Homo sapiens, UniProt P41145); test: cell-based; conditions: pEC50
T35 construct: expressed in transfected cells; host or cells: HEK293T

human KOR (Gustducin) = target: T36, human KOR (Gustducin) (Homo sapiens, UniProt P41145); test: cell-based
T36 construct: expressed in transfected cells; host or cells: HEK293T

human KOR [40] = target: T29, human KOR; test: cell-based; conditions: pEC50; remark: listed apart in the source
human KOR [41] = target: T30, human KOR; test: cell-based; conditions: pEC50; remark: listed apart in the source
human KOR (GoB) [42] = target: T37, human KOR (GoB) (Homo sapiens, UniProt P41145); test: cell-based
T37 construct: expressed in transfected cells; host or cells: HEK293T

[43] = read-out: KOR WT_Gi response (Figure S4D)
[44] = read-out: cAMP response (Figure S4C)

With `CN(C(=O)/C=C/c1ccoc1)[C@@H]1CC[C@@]2(O)[C@H]3Cc4ccc(O)c5c4[C@@]2(CCN3CC2CC2)[C@H]1O5` [Nalfurafine, nalfurafine] the “FC vs wild type” value (human KOR (GoA) [1]) was 457, the Emax (human KOR (GoA) [2]) was 102% and the Emax (human KOR (GoA) [3]) was 102%. For the same molecule, the Emax (human KOR (GoA) [4]) was 102%, the activation at 10 µM (KOR [5]; HTLA, read-out: Tango response) was 103% and the activation at […] (KOR [5]; HTLA, read-out: Tango response) was 101% and 102%. It also gave an activation at […] (KOR [5]; HTLA, read-out: Tango response (Figure S4C)) of 84.5%, an activation at 0.01 µM (KOR [6]; [43]) of 102% and an activation at […] (KOR [6]; [43]) of 101%. For the same molecule, the activation at 0.01 µM (KOR [6]; read-out: cAMP response) was 102%, the activation at […] (KOR [6]; read-out: cAMP response) was 102% and the activation at 0.01 µM (KOR [6]; [44]) was 102%. For the same molecule, the activation at […] (KOR [6]; [44]) was 101%, the “increase in binding affinity” value (KOR [7]; with Gi1) was 10 fold and the “increase in binding affinity” value (KOR [7]; with Nb39) was 40 fold. For the same molecule, the activation at 1 µM (KOR Q115N) was 102%, the Emax (human KOR (Gz) [8]) was 102% and the Emax (human KOR (Gz) [9]) was 102%. It also gave an activation at 0.0001 µM (human KOR (Gz) [10]; HEK-293T, read-out: Gz (Figure 5A concentration-response, replicate values)) of 81.7%, an Emax (human KOR (Gz) [11]) of 102% and an Emax (human KOR (Gz) [12]) of 115%. The activation at 10 pM (human KOR [13]) was 18.2%, the activation at […] (human KOR [13]) was 102% and the activation at 1 pM (human KOR [14]) was 10.2%. It also gave an Emax (human KOR [15]) of 102 ± 4%, an activation at 1 pM (human KOR [16]) of 8.68% and an Emax (human KOR (Gi3) [17]) of 60.3%. For the same molecule, the Emax (human KOR (Gi3) [18]) was 60.3%, the “FC vs wild type” value (human KOR (Gi2) [19]) was 102 and the Emax (human KOR (Gi2) [19]; HEK-293T) was 102%. The “FC vs wild type” value (human KOR (Gi2) [20]) was 234, the Emax (human KOR (Gi2) [21]) was 102% and the Emax (human KOR (Gi1) [22]) was 102%. For the same molecule, the Emax (human KOR (Gi1) [23]) was 78.4%, the Emax (human KOR (Gi1) [24]) was 102% and the Emax (human KOR (β-arrestin 1) [25]) was 102%. For the same molecule, the Emax (human KOR (β-arrestin 2) [26]) was 95.4%, the Emax (human KOR [27]) was 102 ± 7% and the Emax (human KOR (GoB) [28]) was 102%. For the same molecule, the Emax (human KOR (GoB) [29]) was 102% and the Emax (human KOR (GoB) [30]) was 102%.

`COC(=O)N1CCN(C(=O)Cc2ccc(Cl)c(Cl)c2)C2C(N3CCCC3)CCCC21` (stereo not drawn) [WMS-X600] was tested, and the EC50 (human KOR (GoA) [31]) was 0.513 nM, the EC50 (KOR [5]; pEC50) was 0.468 nM and 0.372 nM and 0.513 nM and the EC50 (KOR [6]; pEC50) was 0.105 nM and 0.102 nM and 0.132 nM. For the same molecule, the EC50 (human KOR (Gz) [10]) was 0.0977 nM, the EC50 (human KOR [32]) was 110 nM and the EC50 (human KOR [33]) was 6.92 pM. The EC50 (KOR [34]) was 108 nM, the EC50 (human KOR (Gi3) [35]) was 0.646 nM and the EC50 (human KOR (Gi2) [36]) was 0.646 nM. For the same molecule, the EC50 (human KOR (Gi1) [37]) was 1.41 nM and 0.282 nM, the EC50 (human KOR (β-arrestin 1) [38]) was 52.5 nM and the EC50 (human KOR (β-arrestin 2) [39]) was 30.9 nM and 8.91 nM. For the same molecule, the EC50 (human KOR (Gustducin)) was 4.9 nM, the EC50 (human KOR [40]) was 302 nM and the EC50 (human KOR [41]) was 0.0776 nM. For the same molecule, the EC50 (human KOR (GoB) [42]) was 0.191 nM.
